In patent US12558322B2, “Control method of local release for target compounds by using patterning hydrogel to nanoporous membrane” (KNU-Industry Cooperation Foundation, priority 2018, dated 2026):

What was measured:
MG-63 cells [1] = test: Actin filament staining of MG-63 cells; format: cell-based, human; details: 2000 ng/mL BMP-2 in 2.5% (w/v) GelMA micropattern, 6 days
Procedure: (§1) To evaluate the effect of osteogenic differentiation, including morphology, on the localized and controlled release of BMP-2, human osteoblast-like MG-63 cells (American Type Culture Collection, Rockville, MD, USA) were cultured onto the GelMA hydrogel micropatterned SNM for 6 days.
(§2) In particular, before the pattering process, the SNM was fixed onto the bottom of the cell culture dish using half-cured PDMS solution and dried for preventing the floating of SNM in the culture media. The cell density was 1×10^6 cells/mL, and 100 μL cells were seeded onto the BMP-2 (2000 ng/ml)-immobilized GelMA hydrogel micropatterned SNM. In addition, MG-63 cells were simultaneously cultured on SNM without BMP-2 as the control group. The cells were cultured in cell media [10% (w/w) Dulbecco's modified Eagle's medium (DMEM)] (Gibco, CA, USA) supplemented with 1% (w/w) fetal bovine serum (FBS) (Gibco) and 1% (w/w) penicillin/streptomycin (Gibco) in a humidified atmosphere containing 5% CO2 at 37° C.
After 6 days, the actin filaments were stained with Alexa Fluor 568 phalloidin fluorescent dye (Invitrogen, Eugene, OR, USA) to determine the cytoskeletal organization in MG-63 cells. Image-iT™ FX signal enhancer was used to enhance the signal-to-noise ratio of fluorescently labeled cells, and fluorescent images were acquired and processed using an Axiovert 200 inverted microscope.

MG-63 cells [2] = test: Osteogenic differentiation of MG-63 cells, ARS staining of calcium deposits; format: cell-based, human; details: 6 days
Procedure: as §1, §2
Osteogenic differentiation was evaluated by staining the calcium deposits using the ARS staining kit (pH 4.1-4.3; Sigma-Aldrich). First, the culture medium was removed, and the cells were gently washed thrice with PBS. Next, the cells were fixed with 4% (w/v) formaldehyde for 15 min at room temperature. […]

BMP-2: bone morphogenetic protein (30 kDa), 2000 ng/mL immobilized in GelMA hydrogel micropattern
cytoskeleton (actin network) of MG-63 cells (MG-63 cells [1]): relatively rich and dense actin network
calcium deposits formed by MG-63 cells versus control group (MG-63 cells [2]; 2000 ng/mL BMP-2 in 2.5% (w/v) GelMA micropattern): significantly higher
average calcium deposition area (ARS staining, Image J) (MG-63 cells [2]; 2000 ng/mL BMP-2 released from 2.5% (w/v) GelMA hydrogel micropattern on SNM): approximately 32 mm^2
